From patent US7507792B2, “MDA-7 proteins and methods of use thereof” (The Trustees of Columbia University In The City of New York, priority 1993, dated 2009)

Legend:
[1] = test system: H0-1 human melanoma cell line; test: 96-h growth suppression (cell number by Coulter Counter); type: cell-based; conditions: H0-1 cells, degree of initial 96 hr growth suppression versus untreated control
Experimental: FIG. 1A-B Effect of continuous exposure to various growth and differentiation modulating agents on the 96-h growth of the human melanoma cell line, H0-1. Cells were seeded at 5×10^4/35-mm tissue culture plate and 24 h later the medium was changed with the indicated compounds. Cell numbers were determined by Coulter Counter after 96-h growth. Further details can be found in Materials and Methods. The abbreviations and the concentrations of test compounds uses: IFN-β+MEZ (recombinant human fibroblast interferon+mezerein)) (2,000 U/ml+10 ng/ml); MPA+MEZ (mycophenolic acid+MEZ) (3.0 μM+10 ng/ml); RA+MEZ (trans-retinoic acid+MEZ) (2.5 μM+10 ng/ml); IFN-β+IFN-G (IFN-β+recombinant human gamma interferon) (1,000 U/ml+1,000 U/ml); MEZ (10 ng/ml); MPA (3.0 μM); IFN-G (2,000 U/ml); IFNβ (2,000 U/ml); RA (2.5 μM); and Control (media only).
The H0-1 cell line is a melanotic melanoma derived from a person and was used between passage 100 and 125 (6,8,13). H0-1 cells were kindly provided by Dr. Beppino C. Giovanella, Stehlin Foundation for Cancer Research, Houston, Tex. […] Total cell numbers were determined after days 4, 7, 14, and 21, using a ZM Coulter Counter, and viable cell numbers were determined by trypan blue dye exclusion (6). […]

mda-5 = mda-5 expression (Northern blotting); type: cell-based, human; conditions: H0-1
Experimental: FIG. 19 Effect of various treatment protocols on mda expression in H0-1 cells. IFN-β (2,000 units/ml, 24 hours); MEZ (10 ng/ml, 24 hours); IFN-β+MEZ (2,000 units/ml+10 ng/ml, 24 hours); phenyl butyrate (PB) (4 mM, 24 hours, 4 d, 7 d); γ Rad (γ irradiation) 3 gray, 24 hours, Act D (actinomycin D) (5 μg/ml, 2 hour→24 hours assay); Adriamycin (Adr) (0.1 μg/ml, 24 hours); Vincristine (Vin) (0.1 μg/ml, 24 hours); cis-plt (cis-platinum) (0.1 μg/ml, 24 hours); TNF-α (tumor necrosis factor-α) (100 units/ml, 24 hours); UV (10 joules/mm^2, 2, 14 and 24 hours assay); VP-16 (5 μg/ml, 24 hours); IFN-α (2,000 units/ml, 24 hours); and IFN-α+MEZ (2,000 units/ml+10 ng/ml, 24 hours).
The mass excision of the library was performed using ExAssist helper phage as described above. The SOLR strain of Escherichia coli and cDNA phagemids were mixed at 37° C. for 15 min and plated onto LB plates containing ampicillin and IPTG/X-gal. White colonies were chosen at random, isolated and grown in LB medium. Plasmid minireps and restriction enzyme digestions were performed to confirm the presence of inserts. The inserts were isolated and used as robes for Northern blotting analysis (5,25). […]

B1: IFN-β: Recombinant human IFN-β, with a serine substituted for a cysteine at position 17 of the molecule (protein)
chain: MSYNLLGFLQRSSNFQCQKLLWQLNGRLEYCLKDRMNFDIPEEIKQLQQFQKEDAALTIYEMLQNIFAIFRQDSSSTGWNETIVENLLANVYHQINHLKTVLEEKLEKEDFTRGKLMSSLHLKRYYGRILHYLKAKEYSHCAWTIVRVEILRNFYFINRLTGYLRN
Growth Suppression (reversible) ([1]; Table 1): 3+ (3+ = ~50 to 60% reduction in growth in comparison with untreated control cultures)
Growth Suppression (reversible) ([1]; Table 2): 3+ (3+ = ~50 to 60% reduction in growth in comparison with untreated control cultures)
mda-5 expression (mda-5; 24 hours, doses of FIG. 19, phenyl butyrate 24 hours, 4 days or 7 days): increased expression
mda-5 expression (mda-5; 96 hours, doses of FIG. 15 legend): Very low induction
